Measured values: patent US20100158863A1, “TRIAZOLOANILINOPYRIMIDINE DERIVATIVES FOR USE AS ANTIVIRAL AGENTS” (ARROW THERAPEUTICS LIMITED, priority 2006, published 2010)

System: HCV replicon 1b
Test: ELISA, combined effect of HCV replication inhibitor with interferon αA
Assay type: cell-based
Text: ELISA Protocol as in Example 38
The fractional inhibitory concentratin (FIC) can be used to identify a synergistic interaction.

**Q.** What does the source list for “interferon αA: interferon αA (Sigma Hu-INF-α A order number 14276)”?
**A.** IC50 of interferon αA in combination (at concentrations of [6-(3,4-Dimethoxy-phenyl)-quinazolin-4-yl]-(4-[1,2,4]triazol-1-yl-phenyl)-amine below its IC50): ≤ 0.008 u/ml; ELISA IC50 against HCV replicon 1b (interferon αA alone): 6 u/ml
